Test results from US20260138959A1, “QUINAZOLINE DERIVATIVE COMPOUND AND USE THEREOF” (VORONOI INC., priority 2021, published 2026).

Sequences of proteins named here, by UniProt entry; tags and fusion partners are left off. Residues count along the entry.
UniProt P09619, 33-1106 limits assumed: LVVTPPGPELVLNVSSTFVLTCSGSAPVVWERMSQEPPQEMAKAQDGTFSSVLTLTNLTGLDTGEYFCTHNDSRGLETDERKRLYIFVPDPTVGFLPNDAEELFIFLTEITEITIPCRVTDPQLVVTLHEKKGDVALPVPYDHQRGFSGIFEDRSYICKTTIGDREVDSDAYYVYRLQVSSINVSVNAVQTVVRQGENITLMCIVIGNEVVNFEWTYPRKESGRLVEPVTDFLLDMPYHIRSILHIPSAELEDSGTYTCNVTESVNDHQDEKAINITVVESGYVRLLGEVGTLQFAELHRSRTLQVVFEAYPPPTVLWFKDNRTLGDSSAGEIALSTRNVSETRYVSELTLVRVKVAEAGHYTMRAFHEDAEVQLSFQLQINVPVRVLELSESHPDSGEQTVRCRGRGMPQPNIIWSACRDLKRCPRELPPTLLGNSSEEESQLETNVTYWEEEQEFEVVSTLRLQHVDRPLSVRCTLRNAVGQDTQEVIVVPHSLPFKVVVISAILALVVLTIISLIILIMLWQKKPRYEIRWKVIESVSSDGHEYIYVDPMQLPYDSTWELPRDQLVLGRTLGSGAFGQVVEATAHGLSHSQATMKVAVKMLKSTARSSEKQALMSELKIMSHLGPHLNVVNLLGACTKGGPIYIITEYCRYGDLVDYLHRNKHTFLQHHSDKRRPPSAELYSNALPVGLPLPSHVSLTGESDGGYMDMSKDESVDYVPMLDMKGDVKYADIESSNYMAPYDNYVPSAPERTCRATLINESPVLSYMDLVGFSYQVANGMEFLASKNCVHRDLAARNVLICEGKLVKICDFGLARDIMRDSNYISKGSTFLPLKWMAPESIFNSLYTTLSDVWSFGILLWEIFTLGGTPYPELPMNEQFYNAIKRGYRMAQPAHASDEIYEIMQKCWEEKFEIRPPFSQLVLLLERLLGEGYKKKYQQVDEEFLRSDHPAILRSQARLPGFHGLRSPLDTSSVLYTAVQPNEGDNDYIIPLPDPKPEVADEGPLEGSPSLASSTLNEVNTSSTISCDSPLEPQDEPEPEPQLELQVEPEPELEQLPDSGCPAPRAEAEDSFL

Experiments:
[1] = target: human PDGFR-β(wt) (Homo sapiens, UniProt P09619); assay: Enzyme inhibitory activity, ADP-Glo kinase assay, PDGFR-β(wt); details: read-out: PDGFR-β (IC50 class)
Description: In order to evaluate the inhibitory activity of the compounds synthesized according to the above examples on PDGFR-α(wt), PDGFR-β(wt), c-KIT(wt), and c-KIT(D816V) kinases, the following method was performed. The compounds of examples were reacted with purified human PDGFR-α(wt) (Signalchem #P12-18G) enzyme, human PDGFR-β(wt) (Signalchem #P13-11G) enzyme, human c-KIT(wt) (Signalchem #K06-11BG) enzyme, human c-KIT(D816V) (Signalchem #C06-12LG) enzyme, and the enzyme inhibitory abilities were evaluated by the following method.
The reaction buffer was used as a composition of 40 mM Tris-HCl pH7.4, 20 mM MgCl2, 0.5 mg/ml BSA, 50 μM DTT, and the reactions of all the tests were carried out on the reaction buffer. The compound was diluted in 12 steps using a serial dilution method from a 10 mM DMSO stock, and the enzyme activity was measured at a final compound concentration of 10˜0.00005645 μM. During the test, the enzyme activity was confirmed using in vitro ADP-Glo™ kinase assay (Promega) after reacting with the proper concentration of human PDGFR-α(wt) enzyme, human PDGFR-β(wt), human c-KIT(wt) enzyme, and human c-KIT(D816V) enzyme with purified ATP and enzyme substrate at 25° C. for 1˜2 hours. […]

[2] = test system: Ba/F3-TEL-PDGFβ(WT); assay: Proliferation inhibitory activity on Ba/F3 cell (CellTiter-Glo, 72 hours), PDGFR-β; details: read-out: Ba/F3 (nM) Tel-PDGFRβ (GI50 class)
Description: (§1) Ba/F3-TEL-PDGFRα(WT), Ba/F3-TEL-PDGFβ(WT), Ba/F3-c-KIT(D816V) (Kyinno, #KC-0138), c-KIT V560G/D816V, c-KIT D814Y were seeded at 3×10^3/100 μl/well in a clear bottom white 96-well plate. A culture solution containing compounds of 12 concentrations (0.00001-2 mM) serially diluted in 3 folds and the DMSO control group was added at 0.5 μl/well each to a final concentration of 0.00005-10 μM, and then incubated in a CO2 incubator at 37° C. for 72 hours. After 72 hours, the plate treated with the compound was taken out, CellTiter-Glo® Assay (Promega) solution was treated with 100 μl/well, followed by mixing well. After mixing well for about 10 minutes at room temperature, […] was measured using a microplate reader. The data were presented as percentages in proportion to treated cells based on the vehicle, GI50 (nM) values were calculated using GraphPad Prism 8.3.0 (GraphPad software Inc., San Diego).
(§2) The inhibitory activities of Ba/F3 expressing PDGFR-α, PDGFR-β, c-KIT(D816V), c-KIT V560G/D816V, and c-KIT D814Y measured as described above were measured and shown in Table 7 below (A: GI50≤200 nM; B: 200 nM<GI50≤500 nM; C: GI50>500 nM).

[3] = test system: c-KIT V560G/D816V; assay: Proliferation inhibitory activity on Ba/F3 cell (CellTiter-Glo, 72 hours), c-KIT V560G/D816V; details: read-out: Cell (nM) c-KIT V560G/D816V (GI50 class), c-KIT V560G/D816V cells
Description: as §1, §2

For `COc1cc2c(-c3ccc(NC(=O)Cc4ccc(C(F)(F)F)cc4)cc3)ncnc2cc1OCC1CCN(C(C)C)CC1`, the IC50 [1] was under 50 nM, the GI50 [2] was under 200 nM and the GI50 [3] was under 200 nM.
